Patent US6521611B2 (Eli Lilly and Company, priority 1996, dated 2003)

Chains of the proteins cited; added tags and fusions are not shown.
UniProt P37288, whole entry: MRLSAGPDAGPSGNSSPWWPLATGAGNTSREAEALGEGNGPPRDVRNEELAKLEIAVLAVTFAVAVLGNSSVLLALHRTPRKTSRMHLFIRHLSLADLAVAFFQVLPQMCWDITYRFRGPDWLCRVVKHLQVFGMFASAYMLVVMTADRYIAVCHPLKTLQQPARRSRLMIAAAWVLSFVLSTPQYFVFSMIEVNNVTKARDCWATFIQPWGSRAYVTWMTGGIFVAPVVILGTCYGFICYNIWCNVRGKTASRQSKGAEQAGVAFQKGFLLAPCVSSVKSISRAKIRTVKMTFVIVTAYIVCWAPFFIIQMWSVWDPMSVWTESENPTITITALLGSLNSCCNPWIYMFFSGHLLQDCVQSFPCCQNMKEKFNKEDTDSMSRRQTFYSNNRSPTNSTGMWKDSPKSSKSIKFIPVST

Columns and labels:
[1] = target: T1, vasopressin V1a receptor (Homo sapiens, UniProt P37288); assay: human vasopressin V1a receptor binding, [3H]PMP-AVP, hV1a (CHO) cell membranes; set-up: expressed in transfected cells; host or cells: CHO (hV1a cell line), membrane preparation; conditions: [3H]PMP-AVP 0.2 nM, read-out: BINDING AFFINITY (IC50 (nM))
Experimental: The human vasopressin V1a receptor has been cloned and expressed (Thibonnier et al., Journal of Biological Chemistry, 269, 3304-3310 (1994)). The nucleotide sequence has been deposited in the EMBL Databank under accession number Z11690.
The hV1a cell line was grown in alpha-MEM (alpha modification of Minimum essential medium Eagle, Sigma, St. Louis, Mo., USA) with 10% fetal bovine serum and 250 μg/ml G418 (Gibco, Grand Island, N.Y., USA). To prepare membranes, hV1a cells were grown to confluency in 20 roller bottles. Cells were dissociated with enzyme-free cell dissociation medium (Specialty Media, Lavallette, N.J., USA) and centrifuged at 2500 rpm for 10 minutes. The pellet was resuspended in 40 mL of Tris-HCl (tris[hydroxymethyl]aminomethane hydrochloride) buffer (50 mM, pH 7.4) and homogenized for 1 minute with a Tekmar Tissumizer (Cincinnatti, Ohio USA). The suspension was centrifuged at 40,000×g for 10 minutes. The pellet was resuspended and centrifuged as above. The final pellet was suspended in 80 mL of Tris 7.4 buffer and stored in 4 mL aliquots at −80° C. For assay, aliquots were resuspended in assay buffer and diluted to 125 μg protein per mL. Protein concentration was determined by BCA assay (Pierce, Rockford, Ill., USA).
Assay buffer was prepared by adjusting the pH of a solution of 50 mMol HEPES (N-2-Hydroxyethylpiperazine-N′-2-ethanesulfonic acid, Sigma, St. Louis, Mo., USA), 5 mMol MgCl2, and 1 mMol dithiothreitol pH 7.4 with NaOH, after which 40 μg/mL bacitracin and 10 μg/mL aprotinin were added. The radioligand for binding assays was [^3H]PMP-AVP (Manning vasopressin antagonist, 56 Ci/mMol, DuPont NEN, Boston, MA, USA). […] The filters were washed with ice-cold 50 mM Tris-HCl (pH 7.7 at 25° C.) and the filter circles were placed in scintillation vials, to which were then added 5 mL Ready Protein Plus scintillation fluid, and counted in a liquid scintillation counter. […] IC50 values were calculated by nonlinear least-squares curve-fitting to a 4-parameter logistic model.

[2] = target: T1, vasopressin V1a receptor; assay: inhibition of AVP-induced aggregation of washed platelets; format: cell-based; set-up: from tissue; host or cells: human blood platelets (platelet-rich plasma or washed platelets); conditions: AVP 30 nM, fibrinogen 0.2 mg/mL, calcium chloride 1 mM
[3] = target: T1, vasopressin V1a receptor; assay: inhibition of AVP-induced platelet aggregation in human platelet-rich plasma; format: cell-based; set-up: from tissue; host or cells: human blood platelets (platelet-rich plasma or washed platelets); conditions: AVP 30 nM, indomethacin 3 μM

IC50 [1] [nM] | IC50 [2] [nM] | IC50 [3] [nM] | SMILES
10 |  |  | CC(C)(C)C(O)C(C(=O)OCc1ccccc1)N1C(=O)C(N2C(=O)OCC2c2ccccc2)C1C=Cc1ccccc1 (mixture of isomers) [Example 38, Benzyl 2(R,S)-[1-hydroxy-2,2-dimethylpropyl]-2-[3(S)-(4(S)-phenyloxazolidin-2-on-3-yl)-4(R)-(2-styryl)-azetidin-2-on-1-yl]acetate]
39 |  |  | CC(C)CC(C(=O)OCc1ccccc1)N1C(=O)C(N2C(=O)OCC2c2ccccc2)C1C=Cc1ccccc1 [Example 7, Benzyl 2-(S)-isobutyl-2-[3(S)-(4(S)-phenyloxazolidin-2-on-3-yl)-4(R)-(2-styryl)-azetidin-2-on-1-yl]acetate]
43 | 48 | 630 | CC1(C(C(=O)NCc2ccccc2)N2C(=O)C(N3C(=O)OCC3c3ccccc3)C2C=Cc2ccccc2)OCCO1 [Example 30, N-[Benzyl]-2-[(1,1-ethyleneketal)acetyl]-2-[3(S)-(4(S)-phenyloxazolidin-2-on-3-yl)-4(R)-(2-styryl)-azetidin-2-on-1-yl)acetamide]
